Literature values in patent publication US20240036032A1, “PREDICTIVE IN VITRO ASSAY MIMICKING IN VIVO PHARMACOLOGY” (MIMI-Q GMBH, priority 2020, published 2024).

Tested on: chemo-resistant metastatic CRC
Conditions: absence of genetic selection; cited from earlier work

cetuximab: anti-EGFR therapy drug
patients responding to anti-EGFR therapy: 10%
